Data: patent US6878733B1, “Formulations for pharmaceutical agents ionizable as free acids or free bases” (Sugen, Inc., priority 1999, dated 2005)

Experiments:
Format in all cases: physicochemical
[1] = Solubility profile at room temperature, HPLC; details: thermodynamic from solid
pH solubility profile = details: 0.1 M phosphate buffer, thermodynamic from solid
[2] = Solubility of in situ salts versus free acid; details: buffer pH 8, pH 8.06, aqueous buffer

Row | Compound | solubility ([1]; 0.1 M phosphate buffer, aqueous buffer, pH 7 buffer (0.1 M phosphate), average of 2 lots) | solubility ([1]; 0.1 M phosphate buffer, aqueous buffer, pH 8 buffer (0.1 M phosphate), average of 2 lots) | solubility ([1]; 0.1 N HCl, simulated gastric fluid) | solubility ([1]; aqueous with cosolvent or surfactant or cyclodextrin, 2% Polysorbate - 80) | solubility ([1]; aqueous with cosolvent or surfactant or cyclodextrin, 2% aqueous Polysorbate - 80) | solubility ([1]; aqueous with cosolvent or surfactant or cyclodextrin, 10% Propylene glycol in pH 8.2 buffer, average of 2 lots) | solubility ([1]; aqueous with cosolvent or surfactant or cyclodextrin, 15% PEG 300, 1% Benzyl alcohol in pH 8.2 buffer, average of 2 lots) | solubility ([1]; aqueous with cosolvent or surfactant or cyclodextrin, 15% PEG 300 in pH 8.2 buffer, average of 2 lots) | solubility ([1]; aqueous with cosolvent or surfactant or cyclodextrin, 30% PEG 300, 1% Benzyl alcohol in pH 8.2 buffer, average of 2 lots) | solubility ([1]; aqueous with cosolvent or surfactant or cyclodextrin, 30% PEG 300 in pH 8.2 buffer, average of 2 lots) | solubility ([1]; ethanol, organic solvent or mixture) | solubility ([1]; methanol, organic solvent or mixture) | solubility ([1]; organic solvent or mixture, PEG-300, average of 3 lots) | solubility ([1]; Water, average of 3 lots, room temperature) | solubility (pH solubility profile; pH 8, aqueous buffer, pH of buffer 8.0 (0.1 M phosphate), average pH at equilibrium 8.06) | solubility (pH solubility profile; pH 8.2, aqueous buffer, pH of buffer 8.2 (0.1 M phosphate), pH at equilibrium not tested) | solubility [2]
1 | Cc1[nH]c(C=C2C(=O)Nc3ccccc32)c(C)c1CCC(=O)O [3-[2,4-Dimethyl-5-(2-oxo-1,2-dihydro-indol-3-ylidenemethyl)-1H-pyrrol-3-yl]-propionic acid] | 9 µg/mL (≈ 29 µM) | 85 µg/mL (≈ 274 µM) | < 0.1 µg/mL | 130 µg/mL (≈ 419 µM) | 130 µg/mL (≈ 419 µM) | 400 µg/mL (≈ 1290 µM) | 1800 µg/mL (≈ 5800 µM) | 1400 µg/mL (≈ 4510 µM) | 3700 µg/mL (≈ 11900 µM) | 3200 µg/mL (≈ 10300 µM) | 1200 µg/mL (≈ 3870 µM) | 600 µg/mL (≈ 1930 µM) | 6800 µg/mL (≈ 21900 µM) | 30 µg/mL (≈ 96.7 µM) | 85 µg/mL (≈ 274 µM) | 130 µg/mL (≈ 419 µM) | –
2 | Cc1[nH]c(C=C2C(=O)Nc3ccccc32)c(C)c1CCC(=O)O [free acid, 3-[2,4-dimethyl-5-(2-oxo-1,2-dihydro-indol-3-ylidenemethyl)-1H-pyrrol-3-yl]-propionic acid] | – | – | – | – | – | – | – | – | – | – | – | – | – | – | – | – | 85 µg/mL

Converted amounts (≈) assume the structure as drawn.
